This passage reports IC50 results from ChEMBL document CHEMBL3091365, “Optimization of O3-acyl kojic acid derivatives as potent and selective human neutrophil elastase inhibitors” (J Med Chem, 2013).

This experiment has as its target T1, Neutrophil elastase (Homo sapiens, UniProt P08246).
T1 sequence (P08246 whole entry): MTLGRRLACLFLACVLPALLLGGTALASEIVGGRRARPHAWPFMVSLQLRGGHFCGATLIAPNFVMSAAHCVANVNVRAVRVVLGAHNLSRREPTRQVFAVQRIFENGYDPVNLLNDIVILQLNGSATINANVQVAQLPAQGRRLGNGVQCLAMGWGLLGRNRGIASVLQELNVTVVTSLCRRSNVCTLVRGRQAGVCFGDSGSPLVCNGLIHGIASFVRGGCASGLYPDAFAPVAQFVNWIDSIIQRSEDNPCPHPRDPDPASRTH
Description: Inhibition of human neutrophil elastase using MeO-Suc-Ala-Ala-Pro-Val-AMC as substrate incubated for 30 mins prior to substrate addition measured for 30 mins by fluorescence assay.

In turn, `CC(C)(C)C(=O)Oc1ccc(S(=O)(=O)Nc2ccccc2C(=O)NCC(=O)O)cc1` had an IC50 of 10 nM.

The term IC50 denotes the concentration that gives 50% inhibition. A lower IC50 goes with higher potency.
